Protein sequences, listed by entry. Tags and fused reporters are not part of them. Residues count along the entry.
UniProt P07339, 65-412, species assumed: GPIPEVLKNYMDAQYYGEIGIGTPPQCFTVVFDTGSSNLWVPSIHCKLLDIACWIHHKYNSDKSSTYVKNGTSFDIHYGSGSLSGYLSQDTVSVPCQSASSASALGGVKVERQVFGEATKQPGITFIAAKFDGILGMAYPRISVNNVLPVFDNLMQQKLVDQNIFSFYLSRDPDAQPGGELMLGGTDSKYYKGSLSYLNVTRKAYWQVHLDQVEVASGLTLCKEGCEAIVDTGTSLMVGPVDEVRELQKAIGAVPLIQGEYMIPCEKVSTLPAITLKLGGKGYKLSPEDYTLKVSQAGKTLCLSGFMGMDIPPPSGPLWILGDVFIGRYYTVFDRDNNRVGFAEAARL
UniProt P56817, 46-501: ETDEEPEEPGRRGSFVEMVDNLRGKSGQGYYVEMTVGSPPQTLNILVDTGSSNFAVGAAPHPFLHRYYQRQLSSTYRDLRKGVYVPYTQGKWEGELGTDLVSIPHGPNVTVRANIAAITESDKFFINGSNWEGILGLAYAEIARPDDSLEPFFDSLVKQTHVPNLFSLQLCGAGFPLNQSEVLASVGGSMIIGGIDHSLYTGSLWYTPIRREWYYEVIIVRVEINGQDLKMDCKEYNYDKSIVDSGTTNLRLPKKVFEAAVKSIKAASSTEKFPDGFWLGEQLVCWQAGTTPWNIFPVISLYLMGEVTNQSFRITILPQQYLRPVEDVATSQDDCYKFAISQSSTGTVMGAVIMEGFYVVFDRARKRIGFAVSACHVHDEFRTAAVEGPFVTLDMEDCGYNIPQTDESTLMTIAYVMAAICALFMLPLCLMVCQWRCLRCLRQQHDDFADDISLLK

According to patent US9296759B2, “Amino-oxazine and amino-dihydrothiazine compounds as beta-secretase modulators and methods of use” (AMGEN INC., priority 2011, dated 2016):

target: Cathepsin D (Homo sapiens (Human), UniProt P07339); assay: In vitro enzymatic Cat D (Cathepsin D) FRET assay; format: biochemical; conditions: average IC50
Description: In Vitro Enzymatic Cat D (Cathepsin D) FRET (Fluorescence Resonance Energy Transfer) Assay
Recombinant CathepsinD was expressed in CHO cells. The assay buffer for CathepsinD is 0.05 M citrate pH 3.5, 10% DMSO final, 5 mM CHAPS. […] The assays are effectively started by the addition of different FRET substrates (20 nM for CathepsinD) and the combination is incubated for one hour. The FRET assay is terminated with by addition of Tris buffer, which raises the pH to neutrality, and the fluorescence is determined. The FRET substrate is a peptide with commercially available fluorophore and quencher, on opposite sides of the BACE cleavage site. […] Proteolytic cleavage of the FRET substrate releases quenching of fluorescence (CathepsinD excitation 500 nm and emission 580 nm).

| SMILES | IC50 [nM] |
| --- | --- |
| Cc1nc(C(=O)Nc2ccc3c(c2)[C@@]2(CCOC(N)=N2)c2cc(-c4ccnc(F)c4)nc(F)c2O3)cs1 [Example 99, N-((5S)-2′-amino-1-fluoro-3-(2-fluoro-4-pyridinyl)-5′,6′-dihydrospiro[chromeno[2,3-c]pyridine-5,4′-[1,3]oxazin]-7-yl)-2-methyl-1,3-thiazole-4-carboxamide] | 400000 |
| NC1=N[C@@]2(CCO1)c1cc(NC(=O)c3ccc(F)cn3)ccc1Oc1c2cc(-c2ccnc(F)c2)nc1F [Example 97, N-((5S)-2′-amino-1-fluoro-3-(2-fluoro-4-pyridinyl)-5′,6′-dihydrospiro[chromeno[2,3-c]pyridine-5,4′-[1,3]oxazin]-7-yl)-5-fluoro-2-pyridinecarboxamide] | 400000 |
| NC1=N[C@@]2(CCS1)c1cc(NC(=O)c3ccc(F)cn3)ccc1Oc1c2cc(C2=CCOCC2)nc1F [Example 116, N-((5S)-2′-amino-3-(3,6-dihydro-2H-pyran-4-yl)-1-fluoro-5′,6′-dihydrospiro[chromeno[2,3-c]pyridine-5,4′-[1,3]thiazin]-7-yl)-5-fluoro-2-pyridinecarboxamide] | 211000 |
| CC(C)(C)C#Cc1cc2c(cn1)Oc1ccc(NC(=O)c3ccc(Cl)cn3)cc1[C@@]21CCOC(N)=N1 [Example 82, N-((5S)-2′-amino-3-(3,3-dimethyl-1-butyn-1-yl)-5′,6′-dihydrospiro[chromeno[2,3-c]pyridine-5,4′-[1,3]oxazin]-7-yl)-5-chloro-2-pyridinecarboxamide] | 400000 |
| COc1cnc(C(=O)Nc2ccc3c(c2)[C@@]2(CCSC(N)=N2)c2cc(-c4cncc(F)c4)nc(F)c2O3)cn1 [Example 112, N-((5S)-2′-amino-1-fluoro-3-(5-fluoro-3-pyridinyl)-5′,6′-dihydrospiro[chromeno[2,3-c]pyridine-5,4′-[1,3]thiazin]-7-yl)-5-methoxy-2-pyrazinecarboxamide] | 224000 |
| COc1cnc(C(=O)Nc2ccc3c(c2)[C@@]2(CCOC(N)=N2)c2cc(-c4ccnc(F)c4)cc(F)c2O3)cn1 [Example 95, N-((4S)-2-amino-5′-fluoro-7′-(2-fluoro-4-pyridinyl)-5,6-dihydrospiro[1,3-oxazine-4,9′-xanthen]-2′-yl)-5-methoxy-2-pyrazinecarboxamide] | 400000 |
| NC1=N[C@@]2(CCO1)c1cc(NC(=O)c3ccc(F)cn3)ccc1Oc1c(F)cc(-c3ccnc(F)c3)cc12 [Example 102, N-((4S)-2-amino-5′-fluoro-7′-(2-fluoro-4-pyridinyl)-5,6-dihydrospiro[1,3-oxazine-4,9′-xanthen]-2′-yl)-5-fluoro-2-pyridinecarboxamide] | 400000 |
| COc1cnc(C(=O)Nc2ccc3c(c2)[C@@]2(CCOC(N)=N2)c2cc(C4=CCCOC4)ncc2O3)cn1 [Example 58, N-((5S)-2′-amino-3-(5,6-dihydro-2H-pyran-3-yl)-5′,6′-dihydrospiro[chromeno[2,3-c]pyridine-5,4′-[1,3]oxazin]-7-yl)-5-methoxy-2-pyrazinecarboxamide] | 480000 |
| NC1=N[C@@]2(CCO1)c1cc(NC(=O)c3ccc(Cl)cn3)ccc1Oc1c2cc(C2CC2)nc1F [Example 40, N-((5S)-2′-amino-3-cyclopropyl-1-fluoro-5′,6′-dihydrospiro[chromeno[2,3-c]pyridine-5,4′-[1,3]oxazin]-7-yl)-5-chloro-2-pyridinecarboxamide] | 360000 |
| Cc1nc(C(=O)Nc2ccc3c(c2)[C@@]2(CCOC(N)=N2)c2cc(C4=CCCOC4)nc(F)c2O3)cs1 [Example 85, N-((5S)-2′-amino-3-(5,6-dihydro-2H-pyran-3-yl)-1-fluoro-5′,6′-dihydrospiro[chromeno[2,3-c]pyridine-5,4′-[1,3]oxazin]-7-yl)-2-methyl-1,3-thiazole-4-carboxamide] | 411000 |
| N#Cc1ccc(C(=O)Nc2ccc3c(c2)[C@@]2(CCOC(N)=N2)c2cc(C4=CCOCC4)nc(F)c2O3)nc1 [Example 64, N-((5S)-2′-amino-3-(3,6-dihydro-2H-pyran-4-yl)-1-fluoro-5′,6′-dihydrospiro[chromeno[2,3-c]pyridine-5,4′-[1,3]oxazin]-7-yl)-5-cyano-2-pyridinecarboxamide] | 400000 |

target: BACE 1 (beta secretase enzyme) (Homo sapiens (Human), UniProt P56817); assay: In vitro enzymatic BACE FRET assay; format: biochemical; conditions: average IC50
Description: In Vitro Enzymatic BACE FRET (Fluorescence Resonance Energy Transfer) Assay
The assay buffer used in this screen is 0.05 M acetate, pH 4.2, 10% DMSO final, 100 uM genapol (which is a nonionic detergent, below its Critical Micelle Concentration). The beta secretase enzyme (0.2 nM) is pre-incubated for one hour with inhibitors, typically in about 1 uL of DMSO according to a serial dilution, are added thereto. This assay is effectively started by the addition of FRET substrate (50 nM) and the combination is incubated for one hour. The FRET assay is terminated with by addition of Tris buffer, which raises the pH to neutrality, and the fluorescence is determined. The FRET substrate is a peptide with commercially available fluorophore and quencher, on opposite sides of the BACE cleavage site. Proteolytic cleavage of the FRET substrate releases quenching of fluorescence (excitation […] and […]).

| SMILES | IC50 [nM] |
| --- | --- |
| CC#CCOc1cnc(C(=O)Nc2ccc3c(c2)[C@@]2(CCOC(N)=N2)c2cc(Cl)nc(F)c2O3)cn1 [Example 48, N-((5S)-2′-amino-3-chloro-1-fluoro-5′,6′-dihydrospiro[chromeno[2,3-c]pyridine-5,4′-[1,3]oxazin]-7-yl)-5-(2-butyn-1-yloxy)-2-pyrazinecarboxamide] | 0.4 |
| NC1=N[C@@]2(CCO1)c1cc(NC(=O)c3ccc(Cl)cn3)ccc1Oc1ncc(C3=CCOCC3)cc12 [Example 45, N-((5S)-2′-amino-3-(3,6-dihydro-2H-pyran-4-yl)-5′,6′-dihydrospiro[chromeno[2,3-b]pyridine-5,4′-[1,3]oxazin]-7-yl)-5-chloro-2-pyridinecarboxamide] | 2.7 |
| NC1=N[C@@]2(CCO1)c1cc(NC(=O)c3ccc(Cl)cn3)ccc1Oc1c2cc(Cl)nc1F [Example 38, N-((5S)-2′-amino-3-chloro-1-fluoro-5′,6′-dihydrospiro[chromeno[2,3-c]pyridine-5,4′-[1,3]oxazin]-7-yl)-5-chloro-2-pyridinecarboxamide] | 6.8 |
| Cc1cccnc1Nc1ccc2c(c1)[C@@]1(CCOC(N)=N1)c1cc(Cl)nc(F)c1O2 [Example 41, (5S)-3-chloro-1-fluoro-N~7~-(3-methyl-2-pyridinyl)-5′,6′-dihydrospiro[chromeno[2,3-c]pyridine-5,4′-[1,3]oxazine]-2′,7-diamine] | 254 |
| NC1=N[C@@]2(CCO1)c1cc(NC(=O)c3ccc(Cl)cn3)ccc1Oc1c2cc(-c2ccnc(F)c2)nc1F [Example 91, N-((5S)-2′-amino-1-fluoro-3-(2-fluoro-4-pyridinyl)-5′,6′-dihydrospiro[chromeno[2,3-c]pyridine-5,4′-[1,3]oxazin]-7-yl)-5-chloro-2-pyridinecarboxamide] | 0.9 |
| NC1=N[C@@]2(CCO1)c1cc(NC(=O)c3ccc(F)cn3)ccc1Oc1c(F)cc(-c3ccnc(F)c3)cc12 [Example 102, N-((4S)-2-amino-5′-fluoro-7′-(2-fluoro-4-pyridinyl)-5,6-dihydrospiro[1,3-oxazine-4,9′-xanthen]-2′-yl)-5-fluoro-2-pyridinecarboxamide] | 8.8 |
| COc1cc(F)c2c(c1)[C@]1(CCOC(N)=N1)c1cc(NC(=O)c3cnc(OC)cn3)ccc1O2 [Example 75, N-((4S)-2-amino-5′-fluoro-7′-methoxy-5,6-dihydrospiro[1,3-oxazine-4,9′-xanthen]-2′-yl)-5-methoxy-2-pyrazinecarboxamide] | 95.3 |
| COc1cc(F)c2c(c1)[C@]1(CCOC(N)=N1)c1cc(NC(=O)c3ccc(Cl)cn3)ccc1O2 [Example 42, N-((4S)-2-amino-5′-fluoro-7′-methoxy-5,6-dihydrospiro[1,3-oxazine-4,9′-xanthen]-2′-yl)-5-chloro-2-pyridinecarboxamide] | 37.4 |
| N#Cc1ccc(C(=O)Nc2ccc3c(c2)[C@@]2(CCOC(N)=N2)c2cc(-c4ccnc(F)c4)cc(F)c2O3)nc1 [Example 108, N-((4S)-2-amino-5′-fluoro-7′-(2-fluoro-4-pyridinyl)-5,6-dihydrospiro[1,3-oxazine-4,9′-xanthen]-2′-yl)-5-cyano-2-pyridinecarboxamide] | 1 |
| COc1cnc(C(=O)Nc2ccc3c(c2)[C@@]2(CCOC(N)=N2)c2cc(C4=CCCOC4)cc(F)c2O3)cn1 [Example 106, N-((4S)-2-amino-7′-(5,6-dihydro-2H-pyran-3-yl)-5′-fluoro-5,6-dihydrospiro[1,3-oxazine-4,9′-xanthen]-2′-yl)-5-methoxy-2-pyrazinecarboxamide] | 6.8 |
| NC1=N[C@@]2(CCO1)c1cc(NC(=O)c3ccc(Cl)cn3)ccc1Oc1ncc(-c3ccnc(F)c3)cc12 [Example 90, N-((5S)-2′-amino-3-(2-fluoro-4-pyridinyl)-5′,6′-dihydrospiro[chromeno[2,3-b]pyridine-5,4′-[1,3]oxazin]-7-yl)-5-chloro-2-pyridinecarboxamide] | 3.4 |
| COc1cc(F)c2c(c1)[C@]1(CCSC(N)=N1)c1cc(NC(=O)c3ccc(Cl)cn3)ccc1O2 [Example 32, N-((4S)-2-amino-5′-fluoro-7′-methoxy-5,6-dihydrospiro[1,3-thiazine-4,9′-xanthen]-2′-yl)-5-chloro-2-pyridinecarboxamide] | 19.3 |
| COc1cnc(C(=O)Nc2ccc3c(c2)[C@@]2(CCOC(N)=N2)c2cc(C4CCOCC4)cc(F)c2O3)cn1 [Example 61, N-((4S)-2-amino-5′-fluoro-7′-(tetrahydro-2H-pyran-4-yl)-5,6-dihydrospiro[1,3-oxazine-4,9′-xanthen]-2′-yl)-5-methoxy-2-pyrazinecarboxamide] | 32 |
| NC1=N[C@@]2(CCS1)c1cc(NC(=O)c3ccc(Cl)cn3)ccc1Oc1c2cc(C2=CCOCC2)nc1F [Example 117, N-((5S)-2′-amino-3-(3,6-dihydro-2H-pyran-4-yl)-1-fluoro-5′,6′-dihydrospiro[chromeno[2,3-c]pyridine-5,4′-[1,3]thiazin]-7-yl)-5-chloro-2-pyridinecarboxamide] | 1 |
| COc1ccc(C(=O)Nc2ccc3c(c2)[C@@]2(CCOC(N)=N2)c2cc(OC)cc(F)c2O3)c(F)c1 [Example 77, N-((4S)-2-amino-5′-fluoro-7′-methoxy-5,6-dihydrospiro[1,3-oxazine-4,9′-xanthen]-2′-yl)-2-fluoro-4-methoxybenzamide] | 315 |
